Compound activity deposited in PubChem BioAssay by National Center for Advancing Translational Sciences (NCATS).
This is a sample that favours compounds with a hit; in the whole collection about 0.67% have one here.
ASM inhibitor = human S-ASM enzyme inhibition. P17405. placental ASM, HMU-PC fluorogenic substrate, 60 min. 340,000 compounds, 0.006% hits. AID 504937. Potency, µM (titrated, usually from 57.5 µM), for inactives: top-dose activity change, negative = inhibition, actives largely listed as inhibitors; active means well fitted inhibition curve with a large enough effect; inconclusive means small, poorly fitted or top-dose-only effect; inactive means no such curve, though single readings can be large or run the other way
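qHTS format. ASM enzyme prepared from human placenta hydrolyses the fluorogenic substrate HMU-PC0 (9 uM final) over 60 min at 37 °C after a 10 min compound preincubation.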
Rango-impB inh = Rango-importin beta binding inhibition; Rango CFP/YFP FRET sensor + importin beta, 45 min; Potency, µM (highest dose often 92.2 µM), inactives show at the highest dose inhibition of complex formation; 340,000 compounds, 0.031% hits;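 further: 0% = DMSO wells and 100% = buffer wells lacking importin beta; nearly all actives have a fitted effect of over 15% in size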
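FRET biosensor Rango (snurportin 1 IBB between N-terminal EYFP and C-terminal Cerulean), 50 nM in PBS/1 mM DTT/0.02% Tween-20/0.1% BSA, preincubated 5 min RT with compound; 0.125 microM importin beta added, 45 min RT, CFP/YFP FRET ratio read.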
Rango release inh = inhibitors of RanGTP-induced Rango-importin beta complex dissociation; O95149+P62826; Biochemical FRET Rango-importin beta, RanGTP-induced dissociation; Potency, µM (series often up to 46.1 µM), for the others: at the top dose activity change, negative = inhibition; 340,000 compounds, 0.071% hits; AID 540253; further: % of control where 0% means no effect; nearly all actives have a fitted effect of over 45% in size
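Quantitative HTS using a FRET biosensor: 0.1 uM Rango, 0.25 uM importin beta, 0.6 uM Ran, 2 mM GTP, 0.2 uM RCC1 final, PBS with DTT, Tween-20 and BSA. Post-read taken 45 min after Ran addition.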
gsp ag = gsp mutant agonism | AID 624287 | 340,000 compounds, 0.13% hits | gsp mutant cells, cAMP HTRF, 30 min | Potency, µM (top dose mostly 76.9 µM), without a hit: top-dose activation (cAMP increase), actives largely listed as activators; active means well fitted activation curve with a large enough effect; inconclusive means small, poorly fitted or top-dose-only effect, or another doubt; inactive means no such curve, though single readings can be large or run the other way; cell line not stated here;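 further: phosphodiesterase inhibitor Ro 20-1724 added with compounds to block cAMP breakdown; nearly all actives have a fitted effect of over 60% in size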
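Cells in DMEM/10% FBS with G418 were pretreated with compounds in DMSO plus […] (300 uM stock) for 30 min at 37C. cAMP was measured by HTRF (cAMP-d2 plus anti-cAMP antibody-K) after 30 min at room temperature.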
gsp antagonist = antagonizes gsp, the McCune-Albright syndrome mutation. gsp-mutant cells, cAMP HTRF, 30 min. Potency, µM (titrated, usually from 76.9 µM), for inactives: at the top dose activity change, negative = inhibition, usual class: inhibitors. 340,000 compounds, 0.4% hits. AID 624288; calls by dose curve; cell line not stated here;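 further: intracellular cAMP measured with PDE inhibitor Ro 20-1724 present during compound exposure; on the % scale 0 is the no-effect control and ±100 the full control effect; nearly all actives have a fitted effect of over 65% in size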
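Cells in G418 medium, seeded 16-24 h, 37C; buffer exchange to DPBS + 1 mM CaCl2, 0.5 mM MgCl2, 0.05% BSA; cpds in DMSO + […] (300 uM stock), 30 min 37C; HTRF cAMP detection.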
An asterisk follows results filed as active; ? = inconclusive; · = no result given; [ ] = another dose, or the depositor's remark. Unless noted, the call rests on the fitted dose curve. Potency means the concentration at half of the fitted maximal effect.

SMILES	ASM inhibitor	Rango-impB inh	Rango release inh	gsp ag	gsp antagonist
COc1ccc(N2CCN(C(=O)CCc3ccc(S(=O)(=O)NCC(C)C)cc3)CC2)cc1	-3.2%	-1.5%	-1.5%	5.2%	-17.2%
CCn1c(SCC(=O)c2[nH]c(C)c(C(C)=O)c2C)nnc1-c1ccccc1	-1.7%	-4.2%	-25.3%	-3.3%	20µM*
COc1ccc(-n2c(=S)[nH]c3cc(C(=O)NCc4cccnc4)ccc3c2=O)c(OC)c1	-2.6%	-1.3%	16.3%	12.9%	-11.1%
COc1ccc(-n2c(=S)[nH]c3cc(C(=O)NCc4ccccc4)ccc3c2=O)c(OC)c1	-2.3%	-0.6%	4.6%	9.1%[15.4 µM]	20µM*
O=C(CCC(=O)N1CCOCC1)NCCc1ccc(Cl)cc1Cl	2.3%	0.2%	7.5%	-13.7%	-8.2%
O=C(Nc1ccc(Cl)c(Cl)c1)c1cccc(S(=O)(=O)NCc2cccnc2)c1	-22.7%	0.1%	0.5%	7.5%[15.4 µM]	28.2µM*
COc1cccc(S(=O)(=O)NCc2ccc(C(=O)Nc3ccc(Cl)c(Cl)c3)cc2)c1	-12.3%	2.4%	-8.8%	10.7%	-26.5%
Cc1coc2cc3oc(=O)c(CCC(=O)NCCN4CCOCC4)c(C)c3cc12	26.9%	0.4%	-11.4%	·	-13.2%
CCOc1cc(C2C(C#N)=C(N)OC3=C2C(=O)CC(C)(C)C3)cc([N+](=O)[O-])c1O (stereo not drawn)	7.5%	-0.5%	-3.4%	1.5%	-17.4%
CC1(C)CC(=O)C2=C(C1)OC(N)=C(C#N)C2c1cc2c(cc1[N+](=O)[O-])OCO2 (stereo not drawn)	35.6%	?	16.4µM*	-15.0%[15.4 µM]	?
COc1ccc(N=NC2=C(O)CC(C)(C)CC2=O)c(OC)c1	-12.3%	51.7µM*	15.3%	-9.8%	7.8%
Cc1snc(S(=O)(=O)/C(C#N)=N/Nc2cccc(C(F)(F)F)c2)c1C#N	?	0.1%	1.3%	7.6%	35.5µM*
COc1ccc(N/N=C(/C#N)S(=O)(=O)c2nsc(C)c2C#N)cc1	-9.1%	3.4%	-6.3%	16.9%	-20.6%
Cc1ccc(S(=O)(=O)CCN2CCC(n3cccc3)CC2)cc1	-3.5%	4.7%	11.1%	-3.8%[15.4 µM]	7.6%
O=C(N/N=C/c1cccnc1)c1ccc2c(c1)OCCO2	1.0%	0.1%	-5.1%	-3.8%	-6.2%
CC(NC(=O)Nc1nnc(C(F)(F)F)s1)(C(F)(F)F)C(F)(F)F	-2.2%	-7.2%	5.3%	?	6.31µM*
Cc1cccc(NC(=O)/C(C#N)=C\c2cc(C)n(-c3ccc(C(=O)O)cc3)c2C)c1	50.3%	?	?	5.0%	25.1µM*
Cc1cc(/C=C(\C#N)C(=O)Nc2ccccc2)c(C)n1-c1ccc(C(=O)O)cc1	19.5%	-0.8%	-21.8%	-38.7%	?
COc1ccccc1C(CNC(=O)c1cccc(S(=O)(=O)N2CCCc3ccccc32)c1)N(C)C (stereo not drawn)	0.6%	-3.5%	1.3%	?	2.3%
COc1ccccc1CN(C)C(=O)c1cccc(S(=O)(=O)N2CCCc3ccccc32)c1	-0.5%	-0.4%	7.8%	-14.5%	35.5µM*
N#C/C(=C(/O)C(Cl)(Cl)Cl)c1nc2ccccc2[nH]1	-1.9%	?	-12.0%	-11.7%	28.2µM*
CCc1ccc(N/C(SCc2ccccc2C)=C(/C#N)C(=O)NCc2ccco2)cc1	-8.3%	1.3%	-4.2%	12.1%	-7.8%
COc1ccc(NC(=O)c2cnn(-c3ccccc3)c2C)cc1OC	-0.5%	1.7%	-7.9%	-16.8%[15.4 µM]	8.2%
O=C(Nc1ccc(C(=O)Oc2ccccc2)c(O)c1)c1ccco1	-18.8%	-6.7%	5.8%	8.4%	35.5µM*
O=C1c2ccccc2NC(c2cccc(O)c2)N1NS(=O)(=O)c1ccccc1 (stereo not drawn)	5.6%	5.7%	40.1%	10.6%	-3.5%
O=C(CNS(=O)(=O)c1ccc2ccccc2c1)OCC(=O)c1ccc(Br)s1	0.7%	-1.8%	8.7%	8.91µM*	14.4%
Cc1cc(C(=O)OCC(=O)c2ccc(Br)s2)no1	0.2%	-5.1%	-14.5%	35.5µM*	26.4%
Cc1cc(C(=O)COC(=O)CNS(=O)(=O)c2ccc3ccccc3c2)c(C)n1-c1ccccc1	-3.8%	8.0%	6.1%	-9.0%	6.3%
Cc1ccc(C(=O)NCC(=O)OCC(=O)c2ccc(Br)s2)cc1	5.5%	-5.6%	-0.4%	14.1µM*	10.7%
O=C(OCC(=O)c1ccc(Br)s1)c1ccc(O)cc1	-3.3%	0.1%	-2.0%	20.6%	2.0%
NC(=O)C1CCN(C(=O)CC(c2ccccc2)c2ccccc2)CC1	6.3%	0.0%	11.5%	-23.3%	4.1%
CCCCC(CCc1ccccn1)C(=O)c1ccccc1 (stereo not drawn)	3.6%	-5.0%	-1.7%	10.4%	-13.4%
Cc1ccccc1NC(=O)CN1C(=O)NC2(CCCCCCC2)C1=O	0.7%	1.3%	-3.6%	-49.4%	8.7%
CCOC(=O)c1c(NC(=O)COc2cccc3c2CCN(C)C3=O)sc2c1CCC2	-1.0%	0.2%	-16.0%	-39.6%	14.1µM*
Cc1cccc(NC(=O)COc2cccc3c2CCN(C)C3=O)c1C	-1.3%	2.2%	0.1%	0.0%[15.4 µM]	-14.8%
Cc1cc(C)cc(OCC(=O)Nc2ccc3c(c2)C(=O)c2ccccc2C3=O)c1	3.1%	-3.0%	-2.7%	-15.9%[15.4 µM]	9.3%
CC(C)CC(=O)n1sc(NC(=O)c2ccccc2)nc1=O	-0.9%	0.3%	-16.8%	-43.8%	28.2µM*
Cc1ccc(C(=O)Nc2nc(=O)n(C)s2)cc1	2.5%	1.8%	3.0%	-21.8%	22.4µM*
Clc1ccc(-c2nnc(CSc3nnc(-c4cccs4)n3Cc3ccccc3)o2)cc1	-15.7%	-2.6%	15.7%	10.5%	25.1µM*
Cc1nnc(SCc2nnc(-c3cccs3)o2)n1Cc1ccccc1	2.7%	-2.6%	-12.0%	4.2%[15.4 µM]	9.5%
O=C(Oc1ccc2ccc(OC(=O)N3CCCCCC3)cc2c1)N1CCCCCC1	-1.6%	0.6%	-12.2%	?	-29.8%
COc1ccc(CC(CC(=O)O)C(=O)Nc2ccc(Cl)c(Cl)c2)cc1 (stereo not drawn)	-3.1%	5.3%	-3.4%	4.0%	17.8µM*
CCSc1nnc(NC(=O)C(C)(C(F)(F)F)C(F)(F)F)s1	6.1%	3.6%	0.5%	6.9%	22.4µM*
O=C(NCc1ccco1)/C(=C/c1cccc(C(F)(F)F)c1)c1nc2ccccc2[nH]1	22.5%	?	?	7.7%	-3.6%
O=C(NCc1ccco1)/C(=C/c1ccc(C(F)(F)F)cc1)c1nc2ccccc2[nH]1	24.3%	?	18.4µM*	19.9%	-1.0%
CC(C)C(=O)N1CCN(c2ccc(NC(=O)c3cccs3)cc2)CC1	-0.3%	3.5%	21.4%	10.8%	?
CC(C)C(=O)N1CCN(c2ccc(NC(=O)c3cccs3)cc2Cl)CC1	-5.1%	5.1%	11.0%	-20.8%	28.2µM*
Cc1c(C(=O)N2CCOCC2)sc2ncnc(N3CCc4ccccc4C3)c12	6.1%	0.0%	4.0%	?	1.5%

In the list so far, these have fluorine.
SMILES	ASM inhibitor	Rango-impB inh	Rango release inh	gsp ag	gsp antagonist
Cc1snc(S(=O)(=O)/C(C#N)=N/Nc2cccc(C(F)(F)F)c2)c1C#N	?	0.1%	1.3%	7.6%	35.5µM*
CC(NC(=O)Nc1nnc(C(F)(F)F)s1)(C(F)(F)F)C(F)(F)F	-2.2%	-7.2%	5.3%	?	6.31µM*
CCSc1nnc(NC(=O)C(C)(C(F)(F)F)C(F)(F)F)s1	6.1%	3.6%	0.5%	6.9%	22.4µM*
O=C(NCc1ccco1)/C(=C/c1cccc(C(F)(F)F)c1)c1nc2ccccc2[nH]1	22.5%	?	?	7.7%	-3.6%
O=C(NCc1ccco1)/C(=C/c1ccc(C(F)(F)F)cc1)c1nc2ccccc2[nH]1	24.3%	?	18.4µM*	19.9%	-1.0%
